Values of other authors, collected in patent US7368458B2, “Bicyclic heterocycles as cannabinoid receptor modulators” (Bristol-Myers Squibb Company, priority 2005, dated 2008).

Conditions: chronic administration for two weeks

## Cc1c(C(=O)NN2CCCCC2)nn(-c2ccc(Cl)cc2Cl)c1-c1ccc(I)cc1 [AM-251]
  adipose tissue mass: decreased adipose tissue mass
